# Molecular target: LFA-1 binding to ICAM-1 (Homo sapiens, UniProt P05107+P20701)
# Amino acid sequences for entries named in this document (tags omitted). Residues count along the entry.
# UniProt P05107, 23-769 limits assumed: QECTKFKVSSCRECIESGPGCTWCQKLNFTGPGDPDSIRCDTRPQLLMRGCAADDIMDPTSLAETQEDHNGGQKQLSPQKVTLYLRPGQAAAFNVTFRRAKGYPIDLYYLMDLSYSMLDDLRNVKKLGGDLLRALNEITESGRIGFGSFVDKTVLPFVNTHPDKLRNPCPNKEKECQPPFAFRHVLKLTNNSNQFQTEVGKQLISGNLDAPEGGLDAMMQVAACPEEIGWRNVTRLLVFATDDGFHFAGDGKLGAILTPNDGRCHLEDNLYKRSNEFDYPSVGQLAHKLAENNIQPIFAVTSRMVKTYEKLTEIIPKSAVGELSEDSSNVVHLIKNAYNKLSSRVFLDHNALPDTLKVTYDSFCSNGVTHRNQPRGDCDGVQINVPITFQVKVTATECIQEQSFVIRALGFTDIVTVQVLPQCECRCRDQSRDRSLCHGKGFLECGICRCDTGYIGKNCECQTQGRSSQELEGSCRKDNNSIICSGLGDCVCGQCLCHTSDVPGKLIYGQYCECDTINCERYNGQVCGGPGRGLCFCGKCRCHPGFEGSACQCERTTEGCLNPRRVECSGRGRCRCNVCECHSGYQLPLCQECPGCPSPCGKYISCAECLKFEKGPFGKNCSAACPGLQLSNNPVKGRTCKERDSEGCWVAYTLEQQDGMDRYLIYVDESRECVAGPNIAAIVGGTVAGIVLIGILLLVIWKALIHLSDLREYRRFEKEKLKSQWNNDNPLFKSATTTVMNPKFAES
# UniProt P20701, 26-1170 limits assumed: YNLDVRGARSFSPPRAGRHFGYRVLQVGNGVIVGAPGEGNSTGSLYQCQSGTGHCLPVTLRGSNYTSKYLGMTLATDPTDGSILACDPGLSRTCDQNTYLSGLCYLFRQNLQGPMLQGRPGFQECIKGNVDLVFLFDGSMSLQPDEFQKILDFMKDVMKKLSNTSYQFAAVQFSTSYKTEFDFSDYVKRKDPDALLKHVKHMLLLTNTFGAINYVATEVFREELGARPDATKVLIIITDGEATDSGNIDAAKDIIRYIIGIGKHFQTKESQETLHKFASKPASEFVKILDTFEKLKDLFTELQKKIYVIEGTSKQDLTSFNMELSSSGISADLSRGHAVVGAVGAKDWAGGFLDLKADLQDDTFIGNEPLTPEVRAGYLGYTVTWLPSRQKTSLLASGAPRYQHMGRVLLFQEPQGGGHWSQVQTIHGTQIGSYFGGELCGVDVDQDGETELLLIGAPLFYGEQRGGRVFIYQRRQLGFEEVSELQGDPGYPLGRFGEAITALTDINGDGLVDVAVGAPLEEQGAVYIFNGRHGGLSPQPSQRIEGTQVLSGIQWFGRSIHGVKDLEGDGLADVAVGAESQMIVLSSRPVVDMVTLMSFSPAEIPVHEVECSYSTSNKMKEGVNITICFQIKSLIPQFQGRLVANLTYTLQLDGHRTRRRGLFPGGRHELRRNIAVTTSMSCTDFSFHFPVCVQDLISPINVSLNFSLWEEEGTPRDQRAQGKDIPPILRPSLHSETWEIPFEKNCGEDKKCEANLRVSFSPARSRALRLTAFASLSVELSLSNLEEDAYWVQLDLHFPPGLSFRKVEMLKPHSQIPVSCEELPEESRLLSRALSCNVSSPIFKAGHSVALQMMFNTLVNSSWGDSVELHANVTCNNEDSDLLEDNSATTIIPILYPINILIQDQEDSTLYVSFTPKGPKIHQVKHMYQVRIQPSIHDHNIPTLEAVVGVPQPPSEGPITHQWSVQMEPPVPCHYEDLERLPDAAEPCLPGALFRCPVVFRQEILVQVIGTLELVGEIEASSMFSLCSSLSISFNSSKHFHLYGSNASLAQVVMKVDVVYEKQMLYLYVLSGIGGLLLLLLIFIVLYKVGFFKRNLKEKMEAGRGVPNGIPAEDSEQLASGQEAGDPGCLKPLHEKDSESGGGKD
# Experiment: Inhibition of LFA-1 binding to ICAM-1 (LFA-1/Biotin-sICAM-1 AlphaScreen molecular assay)
# Settings: read-out: Alphascreen IC50, highest compound concentration 1 μM in 1% DMSO, 37° C., 90 minutes
# Text: Assay to Determine Inhibition of LFA-1 Binding to ICAM-1
# This assay protocol is designed to study the direct antagonism, by a test compound, of the interaction of ICAM-1 with the Leukointegrin CD18/CD11a (LFA-1).
# The LFA-1/Biotin-sICAM-1 molecular assay measures the ability of test compounds to inhibit binding of LFA-1 to Biotinylated-sICAM using AlphaScreen technology (Ref: Wilson, J, Rossi, C P, Carboni, S, Fremaux, C, Perrin, D, Soto, C, Kosco-Vilbois, M, and Scheer, A: A Homogeneous 384-Well High-Throughput Binding Assay for a TNF Receptor Using Alphascreen Technology. J Biomol Screen 2003; 8:522-532) that uses TS2/4(anti-LFA-1)-custom conjugated AlphaLisa acceptor beads and streptavidin-coated donor beads from PerkinElmer. The assay was performed in white OptiPlates-384 in a volume of 60 μL using assay buffer (Dulbecco's PBS containing calcium and magnesium, 2 mM MgCl2, 0.1 mM PMSF, 0.1% BSA, pH 7.1). To each well, Biotin-sICAM was added followed by purified LFA-1 (in buffer of 50 mM triethylamine, 150 mM NaCl, 1% beta octylglucoside, 2 mM MgCl2 neutralized to pH with 1M Tris-HCl, pH 7.5). For compound testing, compound was added in 5 uL to the above in 25 uL. LFA-1 and Biotin-sICAM-1 were used at concentrations that would yield a signal to background ratio of 8-10. The highest concentration of compound was 1 μM in 1% DMSO. Positive controls were wells without compound containing LFA-1, while blanks were wells without both compound and LFA-1. Plates were mixed and incubated at 37° C. for 90 minutes. This was followed by addition of 15 μL/well TS2/4-congugated acceptor beads diluted in PBS containing 0.1% BSA for a final concentration of 10 μg/mL. The plates were mixed and incubated in the dark for 30 minutes at room temperature followed by addition of 15 μL/well streptavidin-coated donor beads diluted in PBS containing 0.1% BSA at a final concentration of 15 μg/mL. The plates were mixed and incubated in the dark for 60 minutes at room temperature and then read on an EnVision Multilabel Reader using AlphaScreen 384-well OptiPlate protocol.
row,Structure (SMILES),IC50
1,C[C@@]1(Cc2ccc(OC(F)(F)F)cc2)C(=O)N(c2cc(Cl)c(F)c(Cl)c2)c2ncc(C(=O)NC3(C(=O)NC4(c5ccc(C(N)=O)cn5)CC4)CC3)n21,1.9 nM
2,C[C@@]1(Cc2ccc(C#N)cc2)C(=O)N(c2cc(Cl)cc(Cl)c2)c2ncc(C(=O)NC3(C(=O)NC4(c5cc(C(=O)N6CCC(C(N)=O)CC6)ccn5)CC4)CC3)n21,0.55 nM
3,C[C@@]1(Cc2ccc(C#N)cc2)C(=O)N(c2cc(Cl)cc(Cl)c2)c2ncc(C(=O)NC3(C(=O)NC4(c5cc(C(=O)NC6CC6)ccn5)CC4)CC3)n21,0.67 nM
4,C[C@H](O)CNC(=O)c1ccnc(C2(NC(=O)C3(NC(=O)c4cnc5n4[C@](C)(Cc4ccc(C#N)cc4)C(=O)N5c4cc(Cl)cc(Cl)c4)CC3)CC2)c1,0.27 nM

# Results, then the compound that gave them:
row,IC50,Structure (SMILES)
1,0.8 nM,C[C@@]1(Cc2ccc(OC(F)(F)F)cc2)C(=O)N(c2cc(Cl)c(F)c(Cl)c2)c2ncc(C(=O)NC3(C(=O)NC4(c5ccc(C(=O)NC6CC6)cn5)CC4)CC3)n21
2,1.3 nM,C[C@@H](O)CNC(=O)c1ccnc(C2(NC(=O)C3(NC(=O)c4cnc5n4[C@](C)(Cc4ccc(C#N)cc4)C(=O)N5c4cc(Cl)cc(Cl)c4)CC3)CC2)c1
3,0.54 nM,C[C@@]1(Cc2ccc(C#N)cc2)C(=O)N(c2cc(Cl)cc(Cl)c2)c2ncc(C(=O)NC3(C(=O)NC4(c5cc(C(N)=O)ccn5)CC4)CC3)n21

# Same assay, conditions: read-out: Alphascreen IC50, highest compound concentration 1 μM in 1% DMSO, 37° C., 90 minutes, tested form: HCl
row,IC50,Structure (SMILES)
1,0.39 nM,C[C@@]1(Cc2ccc(C#N)cc2)C(=O)N(c2cc(Cl)cc(Cl)c2)c2ncc(C(=O)NC3(C(=O)NC4(c5cc(C(=O)NCCN)ccn5)CC4)CC3)n21

# — patent US8481750B2 (Boehringer Ingelheim International GmbH, priority 2009, dated 2013)
